One compound from paper PMC3527569, “Anti-Inflammatory and Vasoprotective Activity of a Retroviral-Derived Peptide, Homologous to Human Endogenous Retroviruses: Endothelial Cell Effects” (PLoS ONE, 2012) can be followed below.

This assay concerns carrageenan-induced DIC. Briefly: Mouse carrageenan-induced DIC model, lethality. In kind it is in vivo, mouse (CD-1). The settings on record: some protective activity; data not shown. The procedure: Groups of 10 male CD-1 mice were injected i.p. with 0.25 ml of either vehicle (PBS) or peptide in vehicle at varying times prior to the i.p. injection of 1.0 ml of carrageenan (0.45% [w/v] in PBS; Sigma). In experiments where serum cytokine levels were determined, groups of 5 mice were euthanized at 1-, 2-, 4-, 8-, and 24-h post injection of carrageenan, blood collected by cardiac puncture into heparinized syringes, and the resultant plasma stored at −80°C until assayed by ELISA. […] At 1-, 2-, 4-, and 24-h post injection of carrageenan, five mice from each group were euthanized and heparinized blood samples collected from the heart using heparinized syringes for subsequent determinations of WBC (white blood cell) counts, RBC (red blood cell) counts, or PLT (platelet) counts.

Turning to `CC(=O)CCCCn1c(=O)c2c(ncn2C)n(C)c1=O` [Pentoxifylline], the “protection in DIC model” value was not above 50%.
